## Ab-14 heavy chain CDR variants: yeast mating affinities

Source: Engelhart et al. 2022 (doi:10.1038/s41597-022-01779-4), MIT Lincoln Laboratory and A-Alpha Bio; data file from the FLAb repository.

Target: peptide PDVDLGDISGINAS, taken from heptad repeat 2 (HR2) of SARS-CoV-2 spike.

Each scFv is VH, three GGGGS repeats, VL, as in the parent Ab-14, and differs from it in the CDRs of the heavy chain only.
VH: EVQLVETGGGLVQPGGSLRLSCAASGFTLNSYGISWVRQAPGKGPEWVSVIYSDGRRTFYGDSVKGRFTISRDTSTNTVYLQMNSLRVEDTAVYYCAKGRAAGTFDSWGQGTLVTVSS
VL: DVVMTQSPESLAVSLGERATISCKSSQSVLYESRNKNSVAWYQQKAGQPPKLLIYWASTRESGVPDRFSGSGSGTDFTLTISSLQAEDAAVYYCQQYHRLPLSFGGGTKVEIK

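Phage display of a naive human antibody library on the peptide gave the parent. Variants in AAYL49 differ from the parent at up to three CDR positions; double and triple changes were sampled at random. Affinity was read by AlphaSeq, a pooled yeast mating assay with surface-displayed partners. Pairs that bind mate more often; barcode pairs of the diploids are counted by sequencing. A regression on co-assayed BCL2-family reference pairs converts the normalised counts of each replicate to an apparent Kd. Mating was done three times.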

Variants are written as CDR1, CDR2 and CDR3 of the heavy chain (limits as in the source). Parent: GFTLNSYGIS, VIYSDGRRTFYGDSVK, GRAAGTFDS.
Each Kd is an estimate from the mating assay, the geometric mean of the replicates in which the pair was seen; lower is stronger.
An entry "nd" has no value in the source: the pair was not observed among the diploids in any replicate. This suggests poor binding but is not conclusive.
In this assay the parent's reference entry averaged 4.4 nM; its copy inside this library read 13 µM (one replicate of three).

The variant GFTLNSYGIS | VIYSDWRRTFYGDSVH | GRAAGHFDS showed nd (0 of 3 replicates).
The variant GFTLNSYSIS | VIYSDGRRTFYGDSVK | GRAARTFDL showed 1.3 µM (1 of 3 replicates).
The variant GFTLNSYGIS | VIYSDGRRSFIGDSVK | LRAAGTFDS showed nd (0 of 3 replicates).
The variant GFTLNSYGIS | VIYSDGCRTFYGDSVK | GRAIGTFDM showed 100 nM (3 of 3 replicates).
The variant GFTLNSYGIS | KIYSDGRRRFYGDSNK | GRAAGTFDS showed 9.8 µM (1 of 3 replicates).
The variant GFTLNSYGIV | VIYSDERRTFYGDSVK | GRAAWTFDS showed nd (0 of 3 replicates).
The variant GFTLNSYGIS | VIYEDGRRWFYGDSVK | GCAAGTFDS showed nd (0 of 3 replicates).
The variant GFTLNSYGIS | YIYSDGRRTCYGDSVK | GRAPGTFDS showed 110 µM (1 of 3 replicates).
The variant GFTLNSYGIS | VIYSDGRRTFYAYSVK | GRNAGTFDS showed 27 nM (3 of 3 replicates).
The variant GFQLNSYGSS | VIYSDGRRTFYGDSVK | GRAAGTFVS showed nd (0 of 3 replicates).
The variant GFTLNSYGIS | VIYSDGRRTFHQDSVK | GRAAGTFDS showed 400 nM (3 of 3 replicates).
The variant APTLNSYGIS | VIYSDGRRTFYGDSVK | GRALGTFDS showed 400 µM (1 of 3 replicates).
The variant GFTLNSYGIS | VGYSDGRRWFYGDSVK | GRAAGTFDY showed nd (0 of 3 replicates).
The variant GFTLNSDYIS | VIYSDGRRTFYGDSVK | GRYAGTFDS showed 5.9 µM (1 of 3 replicates).
The variant GFTLHSQGIS | VIYSDGRRTFYGMSVK | GRAAGTFDS showed 12 µM (3 of 3 replicates).
The variant GFFLNSYGIS | VIYSQGRRTFYWDSVK | GRAAGTFDS showed nd (0 of 3 replicates).
The variant GFTLNSYGIS | VIDSDGWRTFYGDSVK | GRAAGCFDS showed 7.0 µM (1 of 3 replicates).
The variant GFTLNSYGIS | VIYSDGRRTFYNDSVV | GRAAGTFDS showed 5.5 µM (1 of 3 replicates).
The variant GFTLNSYQIS | VIYMDGRRTFYGDSVK | GRAAGRFDS showed nd (0 of 3 replicates).
The variant GFTLLSYGIS | VIYSDGRRTFYGQSVD | GRAAGTFDS showed 2.9 µM (2 of 3 replicates).
The variant GFTLHSYGIS | VIYSDGRMTIYGDSVK | GRAAGTFDS showed 9.0 µM (1 of 3 replicates).
The variant GFTLNSYGIS | VIYSDGERPFYGDSVK | GRAAGSFDS showed 45 µM (1 of 3 replicates).
The variant GFTLCSYGIS | VIYSDGDRTFYGDLVK | GRAAGTFDS showed 3.2 µM (2 of 3 replicates).
The variant GFTFNSYGIS | VITSDGRRTFYGDSVK | GRAAGTFDS showed 710 nM (1 of 3 replicates).
The variant GFTVNSYGIS | VIYSDGRRTFYGHSVK | GRAAGTGDS showed 270 nM (3 of 3 replicates).
The variant GFTLNSYGIK | VIPSDGRGTFYGDSVK | GRAAGTFDS showed 730 nM (1 of 3 replicates).
The variant GFTLNSYGRS | VIYSDGRRWFYGDSVK | GRAAGTFDQ showed nd (0 of 3 replicates).
The variant GFTLNSLGIS | VIYSDGRITFYGDSVK | GRAADTFDS showed 650 nM (1 of 3 replicates).
The variant GFTLNSYGIS | VIYSDGRRTFLGDSVL | GRAAGTFDS showed nd (0 of 3 replicates).
The variant GFTLNSYGIS | VIYSDGRRTFHGDSVK | SKAAGTFDS showed 320 nM (3 of 3 replicates).
The variant GFTLNSFGIA | VIYSEGRRTFYGDSVK | GRAAGTFDS showed nd (0 of 3 replicates).
The variant GFTLNSTGIS | VIYSDGRRTFYGDSVK | GRSAGTFDS showed 360 nM (1 of 3 replicates).
The variant RFTLNSYGIS | VIYDDGRRTFYGDSVK | IRAAGTFDS showed nd (0 of 3 replicates).
The variant GFTLNVYGIS | VIQSDGWRTFYGDSVK | GRAAGTFDS showed nd (0 of 3 replicates).
The variant GFTLNSSGIS | VIKSDGRRDFYGDSVK | GRAAGTFDS showed nd (0 of 3 replicates).
The variant GFTLNSGGIS | VIYSDPRRRFYGDSVK | GRAAGTFDS showed nd (0 of 3 replicates).
The variant GFTLNSYGIS | VSYSDGRRTCYGDTVK | GRAAGTFDS showed nd (0 of 3 replicates).
The variant GFTLNSYGCS | VIYSDGRRTFYADSVK | GRAAGDFDS showed nd (0 of 3 replicates).
The variant GFTHNSYVIS | VIYSDGRRTFYGDSVK | GRAAGTFDS showed nd (0 of 3 replicates).
The variant GFTLNSYGIS | VIYSDGKRGFYGDSVK | GWAAGTFDS showed 120 µM (1 of 3 replicates).
The variant GGTLNSYGIS | VIYSDGRRTFIGDSVK | GRAFGTFDS showed nd (0 of 3 replicates).
The variant GLTLNSYGIS | VIYSDGRRTFYGDYVK | GRAAVTFDS showed 8.2 µM (1 of 3 replicates).
The variant GFTLNSYGIS | VIYSDGRRTFCGDSVK | GRADGFFDS showed 280 nM (3 of 3 replicates).
The variant GFTLNSYGIS | VIYSDGKRTFYGDSVK | TRAAGRFDS showed 6.7 µM (2 of 3 replicates).
The variant GFTLNSYGIS | LIYSDGRRTFYGDSVK | GRAAGFFVS showed 8.9 µM (3 of 3 replicates).
The variant GFTLNSYGIS | VIYGDGWRTFYGDSVK | GRVAGTFDS showed 290 nM (3 of 3 replicates).
The variant GFTLNPYGIS | VICSDGRRTFYGDSVR | GRAAGTFDS showed 13 µM (1 of 3 replicates).

The first 8 entries again:

CDR-H1,CDR-H2,CDR-H3,Kd,detected
GFTLNSYGIS,VIYSDWRRTFYGDSVH,GRAAGHFDS,nd,0/3
GFTLNSYSIS,VIYSDGRRTFYGDSVK,GRAARTFDL,1.3 µM,1/3
GFTLNSYGIS,VIYSDGRRSFIGDSVK,LRAAGTFDS,nd,0/3
GFTLNSYGIS,VIYSDGCRTFYGDSVK,GRAIGTFDM,100 nM,3/3
GFTLNSYGIS,KIYSDGRRRFYGDSNK,GRAAGTFDS,9.8 µM,1/3
GFTLNSYGIV,VIYSDERRTFYGDSVK,GRAAWTFDS,nd,0/3
GFTLNSYGIS,VIYEDGRRWFYGDSVK,GCAAGTFDS,nd,0/3
GFTLNSYGIS,YIYSDGRRTCYGDSVK,GRAPGTFDS,110 µM,1/3

Background: pairings of library AAYL49 with three empty control strains gave a value in 15% of cases (median 11 µM, 5th percentile 680 nM). Values in that range, when seen in few replicates, are hard to tell from nonspecific mating.